## scFv variants of Ab-95 (light chain) against a SARS-CoV-2 spike peptide

From the AlphaSeq antibody data of Engelhart et al. 2022 (doi:10.1038/s41597-022-01779-4), copy in the FLAb collection.

Antigen: PDVDLGDISGINAS, a 14-residue peptide of the SARS-CoV-2 spike HR2 region.

The variants keep the heavy chain, the linker and the frameworks of Ab-95 (scFv order VH, a 15-residue (Gly4Ser)3 linker, VL).
VH: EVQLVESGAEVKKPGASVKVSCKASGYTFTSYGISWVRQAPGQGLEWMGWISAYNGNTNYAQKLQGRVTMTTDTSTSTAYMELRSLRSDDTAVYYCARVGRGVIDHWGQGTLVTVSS
VL: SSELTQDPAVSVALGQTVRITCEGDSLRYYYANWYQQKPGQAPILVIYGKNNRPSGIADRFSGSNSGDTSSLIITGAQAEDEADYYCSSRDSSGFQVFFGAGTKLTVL

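The parent was found by panning a naive human phage display library on the peptide. AAYL52 was designed without a model: most single CDR substitutions and a random sample of double and triple ones. Affinity was read by AlphaSeq, a pooled yeast mating assay with surface-displayed partners. Binding brings cells together so that they mate, and sequencing counts the barcode pairs among the diploids. Each replicate has its own calibration line, from reference interactions of the BCL2 family. Each pool was mated in three replicate cultures.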

The parent's light chain CDRs are EGDSLRYYYAN, GKNNRPS, SSRDSSGFQVF; each variant's own CDRs replace them letter for letter.
The read-out is the apparent dissociation constant on a log10 scale (nM): the lower, the stronger.
A pair that was not seen in that replicate is written "ND"; this usually means weak binding, but a binder can also be missed.
Empty control strains, which show no peptide, gave a signal in 28% of pairings with library AAYL52; the median was 3.91 and 95% of these signals were weaker than 2.90. No background was subtracted. Also given: how often the same scFv was detected with the empty control strains, with their mean in brackets.
Parent in this assay: reference entry 2.31, copy in this library 2.25.

| CDR-L1 | CDR-L2 | CDR-L3 | replicates, log10 nM | signal with controls |
|---|---|---|---|---|
| EGDSLRSYYAN | PKNNRPS | SSRDSSGFGVF | 2.45 / 2.42 / 3.10 | 1/9 (3.67) |
| EGDSQRYYYAN | GKNYRPS | SLRDSSGFQVF | 4.44 / ND / ND | 2/9 (3.88) |
| EGDYLRYYYAN | GKNNRPS | SSQDSSGFIVF | 3.93 / 3.72 / ND | 5/9 (4.50) |
| EGDSLRYYYAN | GKNNRPS | SQNDSSGWQVF | 2.14 / 2.51 / 2.13 | 3/9 (3.60) |
| EGDSLRYYYAN | GKNNRES | SSRDSSGFQVF | 2.23 / 2.59 / 3.21 | 4/9 (3.96) |
| EGDSLRYYYAN | GKNNRES | SNTDSSGFQVF | ND / ND / ND | 1/9 (3.48) |
| EGRSLRYYYAN | GVNNRPS | SSRDSSGFQVF | 3.08 / 3.21 / 3.50 | 2/9 (4.48) |
| EGDSLRYYYAN | GENNRVS | SSRDSSFFQVF | 2.12 / 2.41 / 1.36 | 3/9 (3.05) |
| EGDSLWYYVAN | GKNNRPS | SSRDSMGFQVF | 3.02 / 5.70 / 3.38 | 3/9 (4.09) |
| EGDSLRYYYAN | GINNRPS | SSRDSSGQQVS | 2.82 / 2.99 / 2.44 | 2/9 (3.45) |
| EYDSLRVYYAC | GKNNRPS | SSRDSSGFQVF | 4.29 / 4.16 / ND | 3/9 (3.41) |
| EGDNLCYYYAN | GKNLRPS | SSRDSSGFQVF | 4.19 / ND / ND | 1/9 (4.06) |
| EGYSLRYYYAN | GKNNRPS | SSRDSDGDQVF | 2.73 / 2.73 / 2.62 | 4/9 (4.10) |
| EGDSLRYYYAN | HKNPRPS | SSRDSSGFQVE | ND / 4.24 / 4.59 | 1/9 (4.76) |
| EGDSLRYYYAN | GKNARPS | SSLDSFGFQVF | 2.80 / 3.42 / 2.29 | 2/9 (4.87) |
| EGDSWRYYYHN | GKGNRPS | SSRDSSGFQVF | 3.42 / ND / ND | 3/9 (4.37) |
| HGDSLRYYYAN | GKNKRPS | SSRDSSGFNVF | 2.81 / 3.02 / 2.68 | 2/9 (4.50) |
| EGDSLSYYYAT | GKNNRPS | SSRQSSGFQVF | 4.49 / 5.40 / ND | 3/9 (4.32) |
| EGDSLRYYYAN | GRNNQPS | SSRDSSGVQVF | 3.69 / 4.55 / ND | 6/9 (4.41) |
| EGDSLRMYYMN | GKANRPS | SSRDSSGFQVF | ND / ND / ND | 2/9 (4.35) |
| WGDSLRYYYAN | GKNNRPS | SSRDSSCFQNF | 3.38 / 2.80 / 3.20 | 2/9 (5.49) |
| EGDSNRYYYAN | GKNNRPK | STRDSSGFQVF | 2.44 / 1.95 / 1.79 | 1/9 (4.60) |
| DGDSLRYYYAN | GDNNRPS | SSRDSSYFQVF | 2.60 / 2.51 / 2.30 | 2/9 (3.17) |
| EGDSLRYIYAN | SKNNRPS | SSRDSHGFQVF | 3.75 / ND / ND | 1/9 (3.81) |
| EGDSLRYDYIN | GKNNRPS | SSRDSSGFFVF | 3.15 / 3.41 / 2.78 | 3/9 (4.20) |
| EGDSLRYYYAN | GKGNRPS | SLRDSSGFQVF | 2.62 / 3.37 / 3.19 | 0/9 |
| EGDSLRYYYPN | GKNNRPS | SSRDFSGFQNF | 2.50 / 2.30 / 1.84 | 4/9 (3.67) |
| EGDSLRYYYAN | GKNNRPS | SSEDSMGTQVF | ND / ND / ND | 6/9 (3.35) |
| EHDSLRYYYAD | GANNRPS | SSRDSSGFQVF | 3.74 / 4.42 / 2.89 | 1/9 (2.36) |
| EGDSLRYYYAN | GMNNRPS | SSRDSSGYTVF | 2.19 / 2.74 / 2.70 | 0/9 |
| EGDSLHYYYAN | GKNNRPS | SSGDSSGFQVS | 3.21 / 2.97 / 2.36 | 4/9 (3.78) |
| EGDSLRYYYAN | GKNNRPS | SSGDSWGFMVF | 2.93 / 2.69 / 2.32 | 2/9 (4.76) |
| EGDILRYYTAN | GKNNRPS | SSSDSSGFQVF | ND / ND / 4.37 | 2/9 (2.84) |
| EGDSNRYYYAN | GKNNRPS | SSRDASGYQVF | 2.84 / 2.84 / 3.03 | 6/9 (3.92) |
| EGDILRYYEAN | GKNNRPS | SSRDSSKFQVF | ND / 4.46 / ND | 0/9 |
| EGDSLRYYYAN | GKNNRHS | SSRDSSGRQNF | 3.27 / 5.72 / 3.67 | 2/9 (4.53) |

For reference, 5 entries of the list once more:

| CDR-L1 | CDR-L2 | CDR-L3 | replicates, log10 nM | signal with controls |
|---|---|---|---|---|
| EGDSLRYYYAN | GRNNQPS | SSRDSSGVQVF | 3.69 / 4.55 / ND | 6/9 (4.41) |
| EGDYLRYYYAN | GKNNRPS | SSQDSSGFIVF | 3.93 / 3.72 / ND | 5/9 (4.50) |
| DGDSLRYYYAN | GDNNRPS | SSRDSSYFQVF | 2.60 / 2.51 / 2.30 | 2/9 (3.17) |
| EGDSLHYYYAN | GKNNRPS | SSGDSSGFQVS | 3.21 / 2.97 / 2.36 | 4/9 (3.78) |
| EGDSLRMYYMN | GKANRPS | SSRDSSGFQVF | ND / ND / ND | 2/9 (4.35) |